In patent US8900549B2, “Compositions and methods for delivering a substance to a biological target” (The General Hospital Corporation, priority 2008, dated 2014):

System: EGFR on A549 cells
Test: Pretargeted live cell labeling with trans-cyclooctene cetuximab and tetrazine-VT680, confocal microscopy
Format: cell-based, human
Conditions: unlabeled cetuximab and tetrazine-VT680, or trans-cyclooctene-cetuximab and unlabeled VT680
Experimental: Cetuximab (ImClone 2 mg/mL) was purchased and the solvent exchanged for 0.1M NaHCO3 buffered at pH 8.5 with a final concentration of 7 mg/mL. To 200 uL of this stock solution was added 10 uL of DMF. (E)-cyclooct-4-enyl 2,5-dioxopyrrolidin-1-yl carbonate was dissolved in anhydrous DMF to make a 40 mM stock solution. For conjugation, the appropriate excess of amine reactive trans-cyclooctene in DMF was aliquoted into the antibody solution, vortexed, and reacted overnight at 4° C. In the experiments reported, the final trans-cycloctene loadings of 1, 3, 5, and 6 correspond to using 2, 10, 30, and 100 equivalents of succinimidyl carbonate with respect to antibody. […]
A solution of antibody (1 mg/mL) in 0.1M NaHCO3 (pH 8.5) was incubated with 2 equivalents of fluorescent succinimidyl ester (VT680, AF555, or Dylight 488) for 2 hours. […] The number of fluorochromes per antibody was determined by spectrophotometric analysis and determined to be approximately 1 per antibody for all dye succinimidyl esters used.
The human lung adenocarcinoma epithelial cell line A549 was selected for all experiments due to its mid-level over-expression of EGFR. […] This protocol yielded an infection rate in excess of 80% (determined by visual assessment using fluorescence microscopy). […]
Direct labeling of the antibodies with AF555 was monitored in the red channel. […]

trans-cyclooctene-cetuximab: anti-EGFR antibody (cetuximab) labeled with trans-cyclooctene succinimidyl carbonate; loadings of 1, 3, 5 and 6 per antibody
NIR fluorescence in control experiments: no NIR fluorescence
